# In US20060159676A1, “Methods for modulating angiogenesis, lymphangiogenesis, and apoptosis with apelin compositions” (priority 2005, published 2006):
# System: developing blood vessels
# Experiment: Apelin-soaked bead implantation in frog embryos, vascular outgrowth by erg in situ hybridization
# Details: beads soaked in apelin 0.1 mg/ml, mutated apelin 0.25 mg/ml, BSA 1 mg/ml or rm VEGF-164 0.25 mg/ml; implanted stage 24-26, assayed stage 35-37
# Experimental: Beads were microsurgically implanted in an avascular region, the posterior lateral mesoderm, of stage 24-26 embryos. Embryos were cultured in 0.2× MMR until stage 35-37, at which time they were prepared for whole mount in situ hybridization analysis as described in Example 2. The embryonic vascular system was visualized using an antisense probe directed against transcripts encoding the Xenopus vascular marker, erg (Baltzinger et al., 1999, Dev. Dyn. 216:420-33).
row,Substance,vascular outgrowth toward implanted beads
1,Apelin-13,outgrowth of developing blood vessels toward the apelin-soaked beads
2,VEGF,nearly identical outgrowth of developing blood vessels
